Target: human mGluR5a receptor (Homo sapiens, UniProt P41594)
Assay: Cell-based functional assay (Ca2+ mobilization, FDSS), potentiation of glutamate EC20 response
Details: H10H cell line; for Emax (%): maximum % effect in the concentration-response curve as percent of maximal glutamate response, glutamate EC20; for pEC50: potentiation in presence of glutamate EC20, concentration in mol/L

By UniProt entry, the sequences of proteins in these tests, tags left out. Residues count along the entry.
UniProt P41594, 21-1180 isoform 2 limits assumed: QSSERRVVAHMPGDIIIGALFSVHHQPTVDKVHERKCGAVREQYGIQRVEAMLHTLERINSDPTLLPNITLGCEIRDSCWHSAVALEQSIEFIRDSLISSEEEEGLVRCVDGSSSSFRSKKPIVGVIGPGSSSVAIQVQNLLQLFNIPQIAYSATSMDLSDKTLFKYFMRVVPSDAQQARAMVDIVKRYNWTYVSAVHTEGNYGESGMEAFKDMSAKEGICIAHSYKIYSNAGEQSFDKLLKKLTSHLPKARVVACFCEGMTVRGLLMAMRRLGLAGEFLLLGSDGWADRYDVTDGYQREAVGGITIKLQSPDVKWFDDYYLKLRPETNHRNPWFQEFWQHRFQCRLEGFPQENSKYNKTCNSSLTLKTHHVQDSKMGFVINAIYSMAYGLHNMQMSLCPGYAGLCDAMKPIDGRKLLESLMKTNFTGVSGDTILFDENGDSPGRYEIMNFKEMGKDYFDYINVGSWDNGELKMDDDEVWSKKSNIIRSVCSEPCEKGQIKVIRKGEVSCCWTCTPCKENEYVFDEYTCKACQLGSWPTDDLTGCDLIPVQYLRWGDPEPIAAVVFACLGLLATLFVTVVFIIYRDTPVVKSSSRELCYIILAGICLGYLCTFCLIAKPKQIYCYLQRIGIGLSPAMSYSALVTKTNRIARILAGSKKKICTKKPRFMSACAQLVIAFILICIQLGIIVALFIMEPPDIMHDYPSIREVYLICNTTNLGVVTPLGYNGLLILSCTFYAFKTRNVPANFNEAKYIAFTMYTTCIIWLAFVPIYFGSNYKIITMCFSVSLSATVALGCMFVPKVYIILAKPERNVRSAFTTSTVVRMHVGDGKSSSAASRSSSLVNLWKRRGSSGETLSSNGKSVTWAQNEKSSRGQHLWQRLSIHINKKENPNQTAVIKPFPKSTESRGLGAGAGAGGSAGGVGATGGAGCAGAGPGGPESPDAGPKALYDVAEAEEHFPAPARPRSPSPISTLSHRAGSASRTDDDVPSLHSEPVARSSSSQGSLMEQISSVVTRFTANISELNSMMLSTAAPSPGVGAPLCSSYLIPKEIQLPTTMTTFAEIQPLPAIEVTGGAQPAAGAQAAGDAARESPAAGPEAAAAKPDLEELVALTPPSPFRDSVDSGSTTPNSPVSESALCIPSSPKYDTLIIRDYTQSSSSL

Row | Compound | Emax (%) | pEC50
1 | COc1nccnc1N1CCn2nc(OCc3ccccc3)cc2C1=O | 30 | 6.03
2 | O=C1c2cc(OCc3ccccc3)nn2CCN1Cc1ccc(F)cc1 | 62 | 6.48
3 | Cc1cccc(COc2cc3n(n2)CCN(c2ccc(F)cc2)C3=O)c1 | 36 | 7.10
4 | O=C1c2cc(OCc3ccccc3)nn2CCN1Cc1cccc(F)c1 | 49 | 7.11

More lines, now with the values ahead:

Row | Emax (%) | pEC50 | Compound
5 | 50 | 5.63 | C[C@@H]1Cn2nc(OCc3ccccc3)cc2C(=O)N1c1ccc(F)cn1
6 | 51 | <5.00 | CC1CN(c2ccc(F)cn2)C(=O)c2cc(OCc3ccccc3)nn21 (single isomer, unassigned)
7 | 55 | 6.93 | O=C1c2cc(OCc3ccccc3)nn2CCN1Cc1ccccc1F
8 | 50 | 6.07 | COc1ccnc(N2CCn3nc(OCc4ccccc4)cc3C2=O)n1
